For this test, the target named is Carbonic anhydrase 2 (Homo sapiens) (UniProt P00918). The experiment in a line: Inhibition of carbonic anhydrase 2 assessed as inhibition of carbon dioxide hydration.

With `NS(=O)(=O)c1ccc(C/N=C/c2cc([N+](=O)[O-])c([N+](=O)[O-])c([N+](=O)[O-])c2)cc1`, the logKi is 1.3.

The values above are taken from ChEMBL document CHEMBL1154241, “A QSAR study on relationship between structure of sulfonamides and their carbonic anhydrase inhibitory activity using the eigenvalue (EVA) method” (Eur J Med Chem, 2009).
